Values of other authors as cited in patent publication US6426317B1, “Stable, high available halogen 1,3,5-triazine-2,4,6-trione compositions having rapid dissolution rates” (Great Lakes Chemical Corporation, priority 1999, dated 2002).

Columns and labels:
[1] = NFPA scale from 1 to 4, NFPA 430, 1995 edition; cited from earlier work
[2] = in water at 20° C.; cited from earlier work

In the case of sodium dichloroisocyanurate, the “Oxidizer Rating” value [1] is listed as 1 and the Solubility [2] is listed as 12.5^4 g/100g (%).
